Paper PMC7520419 (The AAPS Journal, 2020)

Experiment: pKa

With `CC[C@H]1OC(=O)[C@H](C)[C@@H](O[C@H]2C[C@@](C)(OC)[C@@H](O)[C@H](C)O2)[C@H](C)[C@@H](O[C@@H]2O[C@H](C)C[C@H](N(C)C)[C@H]2O)[C@](C)(OC)C[C@@H](C)C(=O)[C@H](C)[C@@H](O)[C@]1(C)O` [Clarithromycin] the “pKa (b, basic)” value was 8.99b.
